TDP1 block = TDP1 (human) enzyme inhibition; Potency, µM (highest dose often 130 µM), for the others: at the top dose activity change, negative = inhibition, hits mostly inhibitors; recombinant TDP1, AlphaScreen DNA substrate cleavage; actives 0.28% (n = 350,000); further: potency means the concentration at half of the fitted maximal effect; on the % scale 0 is the no-effect control and ±100 the full control effect; nearly all actives have a fitted effect of over 40% in size
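Recombinant E. coli-expressed Tdp1 (1 nM) preincubated with compound 15 min at RT, then 5'-biotin/3'-phosphotyrosine-FITC DNA substrate (15 nM) added for 5 min. AlphaScreen beads (10 ug/ml) added, 10 min RT; tyrosine-FITC cleavage read as signal loss.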
miR-21 reporter = miR-21 reporter, rising signal; HeLa miR-21 FLuc reporter, luciferase, 48 h; Potency, µM (titrated, usually from 38.3 µM), for the others: at the top dose reporter change, positive = more light; 340,000 tested, under 10 active; AID 2288; active = well fitted rising curve with a large enough effect; inconclusive = small, poorly fitted or top-dose-only effect; inactive = no such curve, though single readings can be large or run the other way;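 also: % of control where 0% means no effect; miR-21 action dims this reporter so a rising signal means less miR-21 action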
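HeLa cells endogenously expressing miR-21, stably carrying CMV-driven firefly luciferase with a downstream miR-21 binding site, 2000 cells/well. Titrations up to approximately 40 uM, 48 hours; luciferase luminescence read.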
TDP1 cell noCPT = qHTS for Inhibitors of human tyrosyl-DNA phosphodiesterase 1 (TDP1): qHTS in cells in absence of CPT | AID 686978, 2013 | DT40 Tdp1-/- hTDP1 cells, no CPT, ATP luminescence, 48 h | actives 15% (n = 420,000) | Potency, µM (highest dose often 46.2 µM), for the others: at the highest dose activity change, negative = growth inhibition, most hits filed as inhibitors; further: potency means the concentration at half of the fitted maximal effect; on the % scale 0 is the no-effect control and ±100 the full control effect; nearly all actives have a fitted effect of over 55% in size
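No-CPT arm: Tdp1-/-;hTDP1 DT40 cells (400/well) plus compounds, incubated ≥48 hr at 37 °C. Readout CellTiter-Glo luminescence.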
uPA generation = blocks generation of uPA at the cell surface; cell surface uPA generation assay, qHTS; Potency, µM (highest dose often 38.3 µM), for inactives: at the highest dose activity change, negative = inhibition, usual class: inhibitors; actives 0.31% (n = 330,000); AID 540303; active means well fitted inhibition curve with a large enough effect; inconclusive means small, poorly fitted or top-dose-only effect; inactive means no such curve, though single readings can be large or run the other way; tested in mouse RAW 264.7 cells; further: potency means the concentration at half of the fitted maximal effect; on the % scale 0 is the no-effect control and ±100 the full control effect; nearly all actives have a fitted effect of over 55% in size
TDP1 cell CPT = growth inhibition of DT40 Tdp1-/-;hTDP1 cells with camptothecin (screen for TDP1 inhibitors) | Potency, µM (titrated, usually from 46.2 µM), inactives show at the highest dose activity change, negative = growth inhibition, most hits filed as inhibitors | chicken DT40 Tdp1-/-;hTDP1 cells + 20 nM CPT, ATP luminescence, 48 h | actives 12% (n = 420,000); further: potency means the concentration at half of the fitted maximal effect; on the % scale 0 is the no-effect control and ±100 the full control effect; nearly all actives have a fitted effect of over 55% in size
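Chicken DT40 Tdp1-/- cells stably complemented with human TDP1 were seeded at 400 cells/well in medium containing 20 nM camptothecin, exposed to pin-transferred compounds, and grown at 37 °C for at least 48 hr. Viability was read as ATP luminescence.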
The depositor's hits bear a star; ? = inconclusive; · = no result given; [ ] = remark or other dose. This is a sample that favours compounds with a hit; in the whole collection about 16% have one here. Unless noted, the call rests on the fitted dose curve; in most records, active means well fitted curve in the direction sought with a large enough effect; inconclusive means small, poorly fitted or top-dose-only effect, or another doubt; inactive means no such curve, though single readings can be large; an effect the other way counts as inactive or inconclusive.

1: COCCNC(=S)N/N=C(\C)c1ccc(Cl)c(Cl)c1
2: COCCNC(=S)N/N=C(\C)c1ccc(Cl)c(Cl)c1Cl
3: COCCNC(=S)N/N=C(\C)c1cccc(OC)c1
4: COc1ccc(/C(C)=N/NC(=S)NCCc2ccccc2)c(O)c1
5: NC(=O)Nc1n[nH]c(-c2ccccc2)n1
6: COc1ccc(-n2nc3c(=O)[nH][nH]c3cc2=O)cc1

| Compound | 1 | 2 | 3 | 4 | 5 | 6 |
| --- | --- | --- | --- | --- | --- | --- |
| TDP1 block | 5.9% | 5.4% | 0.6% | · | 5.1% | 44.7µM* |
| miR-21 reporter | -30.5% | -15.5% | -3.0% | 3.5% | -18.7% | 5.0% |
| TDP1 cell noCPT | 20.6µM* | 4.61µM* | 11.4% | 0.581µM* | -4.4% | -10.3% |
| uPA generation | -20.5% | -3.2% | -3.6% | 0.2% | -2.2% | 3.9% |
| TDP1 cell CPT | 23.1µM* | 4.11µM* | 13.2% | 0.651µM* | -3.6% | ? |

7: Cc1cc2c(cc1C)NC(c1c(C)n(C)n(-c3ccccc3)c1=O)C1=C(CC(C)(C)CC1=O)N2 (configuration not stated)
8: CCCc1cc(=O)oc2c(CN(CC)CC)c(O)c(Cl)cc12
9: CCOc1cc(/C=N/Nc2nc(N3CCCC3)nc(N3CCCC3)n2)ccc1O
10: CCOc1cccc(/C=N/Nc2nc(N3CCCC3)nc(N3CCCC3)n2)c1O
11: COC(=O)c1ccccc1-c1ccc(/C=N/NC(=O)c2cc3ccccc3o2)o1
12: Cc1ccc(/C=N/Nc2nc(N3CCCCC3)nc(N3CCCCC3)n2)o1

| Compound | 7 | 8 | 9 | 10 | 11 | 12 |
| --- | --- | --- | --- | --- | --- | --- |
| TDP1 block | 6.8% | 6.8% | 2.5% | 5.6% | 11.3% | 4.6% |
| miR-21 reporter | -25.5% | -8.6% | 5.2% | 3.1% | 0.6% | 7.5% |
| TDP1 cell noCPT | ? | -11.1% | ? | 13µM* | 14.6µM* | ? |
| uPA generation | -2.7% | -0.9% | -4.2% | 5.6% | 6.4% | 0.6% |
| TDP1 cell CPT | 16.4µM* | 20.3% | ? | 16.4µM* | ? | 1.0% |

A draw from above in order of SMILES length, ascending:
5: NC(=O)Nc1n[nH]c(-c2ccccc2)n1
2: COCCNC(=S)N/N=C(\C)c1ccc(Cl)c(Cl)c1Cl
10: CCOc1cccc(/C=N/Nc2nc(N3CCCC3)nc(N3CCCC3)n2)c1O

| Compound | 5 | 2 | 10 |
| --- | --- | --- | --- |
| TDP1 block | 5.1% | 5.4% | 5.6% |
| miR-21 reporter | -18.7% | -15.5% | 3.1% |
| TDP1 cell noCPT | -4.4% | 4.61µM* | 13µM* |
| uPA generation | -2.2% | -3.2% | 5.6% |
| TDP1 cell CPT | -3.6% | 4.11µM* | 16.4µM* |

Additional records:
13: COC(=O)c1ccccc1-c1ccc(/C=N/Nc2nc(N3CCCC3)nc(N3CCCC3)n2)o1
14: O=C(Nc1ccc2oc(-c3cccnc3)nc2c1)c1ccc(-c2ccc(OC(F)(F)F)cc2)o1
15: O=C(Cc1ccccc1)Nc1ccc2oc(-c3cccnc3)nc2c1
16: O=C(Nc1ccc2oc(-c3cccnc3)nc2c1)c1ccc2c(c1)OCCO2
17: O=C(Nc1ccc2oc(-c3cccnc3)nc2c1)c1ccc(-c2ccccc2)o1
18: O=C(Nc1ccc2oc(-c3cccnc3)nc2c1)c1ccc(-c2ccccc2OC(F)(F)F)o1

| Compound | 13 | 14 | 15 | 16 | 17 | 18 |
| --- | --- | --- | --- | --- | --- | --- |
| TDP1 block | -3.6% | 0.4%[12.3 µM] | -2.2% | 2.6% | -3.1%[12.3 µM] | 5.7%[2.28 µM] |
| miR-21 reporter | 14.8% | -1.9% | -14.6% | -25.3% | ? | 12.2% |
| TDP1 cell noCPT | 23.1µM* | 20.6µM* | -23.8% | ? | 9.2µM* | 9.2µM* |
| uPA generation | -2.4% | · | 4.7% | -3.5% | · | · |
| TDP1 cell CPT | ? | ? | -21.5% | ? | 11.6µM* | 10.3µM* |

19: COc1ccc(COCC(O)CN2CCCCC2)cc1OC (configuration not stated)
20: CC(=O)C1=C(C)NC(SCC(=O)c2ccccc2)=C(C#N)C1CC(C)C (configuration not stated)
21: CC(=O)C1=C(C)NC(SCC(=O)c2ccccc2)=C(C#N)C1c1ccco1 (configuration not stated)
22: CCCc1n(CC)c2ccccc2[n+]1CC(O)COC1CCCCC1 (configuration not stated)
23: CCc1n(CC(O)COCC2CC=CCC2)c2ccccc2[n+]1C (configuration not stated)
24: CC(=O)c1cccn1S(=O)(=O)c1ccccc1

| Compound | 19 | 20 | 21 | 22 | 23 | 24 |
| --- | --- | --- | --- | --- | --- | --- |
| TDP1 block | 0.6% | 0.5% | 1.0% | 4.9% | 0.0% | · |
| miR-21 reporter | -0.6% | -5.2% | -13.5% | 17.2% | 8.3% | -4.9% |
| TDP1 cell noCPT | -18.7% | 16.4µM* | · | 4.11µM* | ? | 1.6% |
| uPA generation | 0.3% | 10.8% | · | -1.7% | 1.5% | -1.7% |
| TDP1 cell CPT | 0.0% | ? | · | 5.17µM* | ? | -0.6% |

25: CCSc1ncc(/C=N/Nc2ccccc2)n1C
26: Cc1cc(C)c(C)c(OC(=O)c2sc(Cl)nc2C)c1
27: Cc1ccc(NC(=O)c2sc(Cl)nc2C)c(C)c1
28: CC(OC(=O)CCCN=C1NS(=O)(=O)c2ccccc21)C(=O)c1ccccc1 (configuration not stated)

| Compound | 25 | 26 | 27 | 28 |
| --- | --- | --- | --- | --- |
| TDP1 block | 8.3% | 0.0% | 2.8% | · |
| miR-21 reporter | -22.6% | 1.4% | -9.1% | · |
| TDP1 cell noCPT | 16.4µM* | 8.2µM* | 2.8% | -8.3% |
| uPA generation | 4.5% | -9.8% | -3.9% | 2.6% |
| TDP1 cell CPT | 23.1µM* | 7.31µM* | 3.7% | -5.4% |

Results in sequence from the entries so far.
Compounds 25–28 in uPA generation read 4.5%, -9.8%, -3.9%, 2.6%

High-throughput results from PubChem BioAssay.
